Reference: PMC3000100

The chains behind the UniProt entries cited, without tags or fusion partners. Residues count along the entry.
UniProt P01308, 25-54, chain 1 of 2: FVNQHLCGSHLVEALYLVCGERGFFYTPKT
UniProt P01308, 90-110, chain 2 of 2: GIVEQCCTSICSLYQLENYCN

Target: reduced insulin (human recombinant insulin after addition of 20 mM DTT) (human) (UniProt P01308)

α-crystallin (from UniProt P02470 1-173; P02510 1-175) (complex)
C0.5: α-crystallin concentration at which Kagg/Kagg,0 = 0.5 in DTT-induced aggregation of insulin at 0.32 mg/mL: 0.4 mg/mL | C0.5: α-crystallin concentration at which Kagg/Kagg,0 = 0.5 in DTT-induced aggregation of insulin at 0.4 mg/mL: 0.62 mg/mL
